Key:
MDA-MB-231 [1] = assay: Cytotoxicity against human MDA-MB-231 cells after 24 hrs by MTT assay; settings: MDA-MB-231, 24 h
MDA-MB-231 [2] = assay: Antimigratory activity against human MDA-MB-231 cells after 24 hrs by wound healing assay; settings: MDA-MB-231, 24 h

IC50 (MDA-MB-231 [2]): 7.5 µM
SMILES: C/C=C(/C=O)[C@@H](CC=O)CC(=O)OCCc1ccc(O)cc1 [(-)-OLEOCANTHAL]
IC50 (MDA-MB-231 [1]): 15 µM

— ChEMBL document CHEMBL2346504, “Olive secoiridoids and semisynthetic bioisostere analogues for the control of metastatic breast cancer” (Bioorg Med Chem, 2013)
